# PubChem BioAssay AID504803 (The Scripps Research Institute Molecular Screening Center, 2011)
# The chains behind the UniProt entries cited, without tags or fusion partners.
# UniProt Q92743, whole entry: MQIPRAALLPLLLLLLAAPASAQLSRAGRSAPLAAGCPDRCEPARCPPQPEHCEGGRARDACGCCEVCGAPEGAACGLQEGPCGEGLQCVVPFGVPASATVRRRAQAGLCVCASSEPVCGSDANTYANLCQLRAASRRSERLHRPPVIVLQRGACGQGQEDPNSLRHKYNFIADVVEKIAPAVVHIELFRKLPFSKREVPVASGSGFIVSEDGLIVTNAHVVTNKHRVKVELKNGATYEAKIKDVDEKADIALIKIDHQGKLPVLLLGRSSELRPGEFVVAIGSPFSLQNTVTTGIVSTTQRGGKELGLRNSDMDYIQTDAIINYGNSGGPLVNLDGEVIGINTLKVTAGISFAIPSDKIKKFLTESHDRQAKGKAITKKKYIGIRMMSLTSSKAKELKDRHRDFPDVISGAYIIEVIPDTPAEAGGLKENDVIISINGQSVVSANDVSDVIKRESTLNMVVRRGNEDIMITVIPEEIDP
# Only a part is listed here, and it is no random draw. Calls of active or inactive are those of the source. Cut-off read from the data, not from the text of the source: active = inhibition above about 36%; inactive = the rest.
# Target: Serine protease HTRA1 (Homo sapiens) (UniProt Q92743)
# Experiment: inhibition of human HTRA1 peptidase – biochemical, fluorescence polarization, HTS, primary screen (AID 504803);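 note: 0% = enzyme with DMSO and 100% = wells lacking enzyme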
# Settings: recombinant HTRA1, FP-rhodamine activity-based probe, at 5.96 µM, active compounds read high
row,Structure (SMILES),inhibition
1,CCC(=O)N(c1ccccc1)C1(COC)CCN(CCn2nnn(CC)c2=O)CC1,inactive: -0.87%
2,CCC(=O)N(c1ccccc1)C1(COC)CCN(CCc2cccs2)CC1,inactive: -8.83%
